Laboratory results from ChEMBL document CHEMBL5370558, “Modifications of geldanamycin via CuAAC altering affinity to chaperone protein Hsp90 and cytotoxicity” (Eur J Med Chem, 2023).

Tests used:
[1] = biological target: T1, Heat shock protein HSP 90-alpha (Homo sapiens, UniProt P07900)
PC-3 = assay: Induction of apoptosis in human PC-3 cells assessed as apoptotic index ratio using ABTS as substrate at 0.1 to 10 ug/ml incubated for 6.5 hrs by ELISA analysis; assay type: functional; details: dose 0.1-10 µg/ml
SK-OV-3 = assay: Induction of apoptosis in human SK-OV-3 cells assessed as apoptotic index ratio using ABTS as substrate at 0.1 to 10 ug/ml incubated for 6.5 hrs by ELISA analysis; assay type: functional; details: dose 0.1-10 µg/ml
SK-BR-3 = assay: Induction of apoptosis in human SK-BR-3 cells assessed as apoptotic index ratio using ABTS as substrate at 0.1 to 10 ug/ml incubated for 6.5 hrs by ELISA analysis; assay type: functional; details: dose 0.1-10 µg/ml
[2] = Selectivity index, ratio of IC50 for cytotoxicity against human HDF cells to IC50 for anticancer activity against human SK-OV-3 cells; assay type: cell-based; details: HDF cells versus SK-OV-3 cells, read-out: Ratio IC50
[3] = biological target: T1, Heat shock protein HSP 90-alpha; assay: Binding affinity to recombinant human HSP90alpha assessed as dissociation constant by isothermal titration calorimetry assay
[4] = biological target: T1, Heat shock protein HSP 90-alpha; remark: listed apart in the source
[5] = Selectivity index, ratio of IC50 for cytotoxicity against human HDF cells to IC50 for anticancer activity against human PC-3 cells; assay type: toxicity, cell-based; details: HDF cells versus PC-3 cells, read-out: Ratio IC50
[6] = Selectivity index, ratio of IC50 for cytotoxicity against human HDF cells to IC50 for anticancer activity against human SK-BR-3 cells; assay type: toxicity, cell-based; details: HDF cells versus SK-BR-3 cells, read-out: Ratio IC50
[7] = biological target: T1, Heat shock protein HSP 90-alpha; remark: listed apart in the source

CO[C@H]1/C=C\C=C(/C)C(=O)NC2=CC(=O)C(NCc3cn(C/C=C/c4ccccc4)nn3)=C(C[C@@H](C)C[C@H](OC)[C@H](O)[C@@H](C)/C=C(\C)[C@@H]1OC(N)=O)C2=O
logKa [1]: 5.41 | Ratio (PC-3): 4.11 | Ratio (SK-OV-3): 6.03 | Ratio (SK-BR-3): 6.31 | selectivity ratio [2]: 3.13 | Kd [3]: 3.86 µM | deltaH [4]: -8.27 kcal/mol | selectivity ratio [5]: 3.05 | selectivity ratio [6]: 2.91 | deltaG [7]: -7.39 kcal/mol

CO[C@H]1/C=C\C=C(/C)C(=O)NC2=CC(=O)C(NCc3cn(CCCOS(=O)(=O)c4ccc(C)cc4)nn3)=C(C[C@@H](C)C[C@H](OC)[C@H](O)[C@@H](C)/C=C(\C)[C@@H]1OC(N)=O)C2=O
logKa [1]: 5.31 | Ratio (PC-3): 4.71 | Ratio (SK-OV-3): 4.88 | Ratio (SK-BR-3): 4.92 | selectivity ratio [2]: 0.98 | Kd [3]: 4.93 µM | deltaH [4]: -5.83 kcal/mol | selectivity ratio [5]: 0.96 | selectivity ratio [6]: 1 | deltaG [7]: -7.24 kcal/mol

CO[C@H]1/C=C\C=C(/C)C(=O)NC2=CC(=O)C(NCc3cn(Cc4ccc(Cl)cc4)nn3)=C(C[C@@H](C)C[C@H](OC)[C@H](O)[C@@H](C)/C=C(\C)[C@@H]1OC(N)=O)C2=O
logKa [1]: 5.26 | Ratio (PC-3): 4.62 | Ratio (SK-OV-3): 5.37 | Ratio (SK-BR-3): 5.12 | selectivity ratio [2]: 1.91 | Kd [3]: 5.53 µM | deltaH [4]: -8.03 kcal/mol | selectivity ratio [5]: 1.91 | selectivity ratio [6]: 1.83 | deltaG [7]: -7.17 kcal/mol
